The values that follow come from ChEMBL document CHEMBL1221329, “Identification of a novel NR2B-selective NMDA receptor antagonist using a virtual screening approach” (Bioorg Med Chem Lett, 2010).

The experiment is described as follows: Antagonist activity at NR1/NR2B NTD truncated mutant receptor expressed in Xenopus oocytes assessed as ratio of residual current induced by agonist in presence of compound to residual current induced by agonist alone at 10 uM by two-electrode voltage-clamp method.

`CCCN1C(N2CCN(CC(=O)c3cc4ccccc4[nH]3)CC2)=NC2C1C(=O)NC(=O)N2C` (stereo unspecified): the Ratio is 0.97.
